A selection: hits, their analogues and other compounds. The true share with any hit is near 16%.
uPA surface inh – blocks generation of uPA at the cell surface; hit rate 0.31% among 330,000; AID 540303; cell surface uPA generation assay, qHTS; Potency, µM (doses to about 38.3 µM), without a hit: at the highest dose activity change, negative = inhibition, actives largely listed as inhibitors; active = well fitted inhibition curve with a large enough effect; inconclusive = small, poorly fitted or top-dose-only effect; inactive = no such curve, though single readings can be large or run the other way; tested in mouse RAW 264.7 cells; also: potency is read from the fitted curve at half-maximal effect; % is scaled to controls: 0 for no effect and ±100 for the full control effect; nearly all actives have a fitted effect of over 55% in size
TDP1 cell noCPT – qHTS for Inhibitors of human tyrosyl-DNA phosphodiesterase 1 (TDP1): qHTS in cells in absence of CPT; hit rate 15% among 420,000; DT40 Tdp1-/- hTDP1 cells, no CPT, ATP luminescence, 48 h; AID 686978, 2013; Potency, µM (top dose mostly 46.2 µM), for inactives: at the top dose activity change, negative = growth inhibition, actives largely listed as inhibitors; also: potency is read from the fitted curve at half-maximal effect; % is scaled to controls: 0 for no effect and ±100 for the full control effect; nearly all actives have a fitted effect of over 55% in size
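Growth kinetics read by CellTiter-Glo luminescence after ≥48 hr at 37 °C. Cells: DT40 Tdp1-/- stably carrying human TDP1, 400 per well, compound exposure in the absence of CPT (DMSO vehicle).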
TDP1 block – TDP1 (human) enzyme inhibition; recombinant TDP1, AlphaScreen DNA substrate cleavage; Potency, µM (doses to about 130 µM), without a hit: at the highest dose activity change, negative = inhibition, actives largely listed as inhibitors; hit rate 0.28% among 350,000; AID 485290; also: potency is read from the fitted curve at half-maximal effect; % is scaled to controls: 0 for no effect and ±100 for the full control effect; nearly all actives have a fitted effect of over 40% in size
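Steps: enzyme plus compound, 15 min RT; add biotin/phosphotyrosine-FITC oligonucleotide (15 nM final), react 5 min; add donor/acceptor beads (10 ug/ml final), 10 min; read AlphaScreen. Tdp1 at 1 nM final.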
DT40 TDP1 CPT – growth inhibition of DT40 Tdp1-/-;hTDP1 cells with camptothecin (screen for TDP1 inhibitors). hit rate 12% among 420,000. Potency, µM (doses to about 46.2 µM), inactives show at the highest dose activity change, negative = growth inhibition, hits mostly inhibitors. chicken DT40 Tdp1-/-;hTDP1 cells + 20 nM CPT, ATP luminescence, 48 h; also: potency is read from the fitted curve at half-maximal effect; % is scaled to controls: 0 for no effect and ±100 for the full control effect; nearly all actives have a fitted effect of over 55% in size
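Cell growth measured by CellTiter-Glo luminescence after a minimum 48 h, 37 C compound exposure with 20 nM CPT in Tdp1-knockout DT40 cells stably expressing hTDP1, seeded 400/well; qHTS titration format.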
miR-21 reporter – raises the signal of a miR-21 reporter | HeLa miR-21 FLuc reporter, luciferase, 48 h | Potency, µM (doses to about 38.3 µM), without a hit: at the top dose reporter change, positive = more light | 340,000 tested, under 10 active | AID 2288; active = well fitted rising curve with a large enough effect; inconclusive = small, poorly fitted or top-dose-only effect; inactive = no such curve, though single readings can be large or run the other way;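 note: % of control where 0% means no effect; miR-21 action dims this reporter so a rising signal means less miR-21 action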
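Using DMEM plus 10% FBS, HeLa miR-21-FLuc cells are incubated with test compounds (final up to about 40uM) for 48 hours; firefly luciferase signal is then imaged following reagent-mediated lysis.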
Active calls of the source: *; ! = repeats disagree. Unless noted, calls follow the shape of the dose curve; as a rule, active = well fitted curve in the direction sought with a large enough effect; inconclusive = small, poorly fitted or top-dose-only effect, or another doubt; inactive = no such curve, though single readings can be large; an effect the other way counts as inactive or inconclusive.

What do the screens show for `COc1ccc(C2NC(=S)N3C(c4ccc(OC)c(OC)c4)NC(=S)N23)cc1OC` (stereo not given)?
TDP1 cell noCPT: 0.0094µM*; DT40 TDP1 CPT: 0.006µM*

Results for COC(=O)C1=C(C)NC(=S)N(C(C)=O)C1c1ccc(OC)c(OC)c1 (stereo not given) ?
uPA surface inh: 5%; TDP1 cell noCPT: -2%; TDP1 block: -3%; DT40 TDP1 CPT: -8%; miR-21 reporter: -2%

Results for O=C(NC1CCSC1=O)c1ccc(Oc2cccc(C(F)(F)F)c2)nc1 (stereo not given) ?
uPA surface inh: -1%; TDP1 cell noCPT: inconclusive; TDP1 block: -3%; DT40 TDP1 CPT: -25%; miR-21 reporter: 0%

Results for O=[N+]([O-])c1ccc(Oc2cccc(C(F)(F)F)c2)nc1 ?
uPA surface inh: 20%; TDP1 cell noCPT: inconclusive; DT40 TDP1 CPT: 13µM*; miR-21 reporter: 6%

Results for O=[N+]([O-])c1ccc(Oc2ccc(C(F)(F)F)cn2)cc1 ?
uPA surface inh: 2%; TDP1 cell noCPT: 4%; TDP1 block: 5%; DT40 TDP1 CPT: 5%; miR-21 reporter: -9%

How did COc1ccc(NC(=O)COc2cccc(C(F)(F)F)c2)cn1 do in these assays?
uPA surface inh: -1%; TDP1 cell noCPT: inconclusive; TDP1 block: 1%; DT40 TDP1 CPT: -4%

Results for O=C(Nc1ccc(Oc2cccc(C(F)(F)F)c2)nc1)c1cccs1 ?
uPA surface inh: -7%; TDP1 cell noCPT: 16µM*; TDP1 block: -8%; DT40 TDP1 CPT: 21µM*; miR-21 reporter: 25%

How did O=C(Nc1ccc(Oc2cccc(C(F)(F)F)c2)nc1)c1ccccc1 do in these assays?
uPA surface inh: 3%; TDP1 cell noCPT: 13µM*; TDP1 block: 3%; DT40 TDP1 CPT: -29%; miR-21 reporter: 15%

What do the screens show for `COc1ccc(C(=O)NCC(=O)OCC(=O)Nc2cc([N+](=O)[O-])ccc2F)cc1`?
uPA surface inh: 2%; TDP1 cell noCPT: 2%; TDP1 block: 2%; DT40 TDP1 CPT: 1%; miR-21 reporter: 4%

What do the screens show for `OCc1nc2ccccc2n1Cc1c(F)cccc1Cl`?
uPA surface inh: 20%; TDP1 cell noCPT: 15µM*!; TDP1 block: 0%; DT40 TDP1 CPT: inconclusive; miR-21 reporter: -13%

How did Cc1ccc(C(=O)CCc2ccc(N)cc2)cc1 do in these assays?
uPA surface inh: -23%; TDP1 cell noCPT: -7%; DT40 TDP1 CPT: -6%; miR-21 reporter: -40%

How did CC[C@@H]1CC=C[C@H]2[C@H]1C(=O)N(Cc1ccccc1)[C@H]2c1ccoc1 do in these assays?
uPA surface inh: inconclusive; TDP1 cell noCPT: 15µM*; TDP1 block: 2%; DT40 TDP1 CPT: 16µM*; miR-21 reporter: inconclusive

Looked up by structure from above:
Results for O=C(Nc1ccc(Oc2cccc(C(F)(F)F)c2)nc1)c1cccs1 ?
uPA surface inh: -7%; TDP1 cell noCPT: 16µM*; TDP1 block: -8%; DT40 TDP1 CPT: 21µM*; miR-21 reporter: 25%

What do the screens show for `OCc1nc2ccccc2n1Cc1c(F)cccc1Cl`?
uPA surface inh: 20%; TDP1 cell noCPT: 15µM*!; TDP1 block: 0%; DT40 TDP1 CPT: inconclusive; miR-21 reporter: -13%

Results for O=C(NC1CCSC1=O)c1ccc(Oc2cccc(C(F)(F)F)c2)nc1 (stereo not given) ?
uPA surface inh: -1%; TDP1 cell noCPT: inconclusive; TDP1 block: -3%; DT40 TDP1 CPT: -25%; miR-21 reporter: 0%

How did CC[C@@H]1CC=C[C@H]2[C@H]1C(=O)N(Cc1ccccc1)[C@H]2c1ccoc1 do in these assays?
uPA surface inh: inconclusive; TDP1 cell noCPT: 15µM*; TDP1 block: 2%; DT40 TDP1 CPT: 16µM*; miR-21 reporter: inconclusive

Carrying on.
What do the screens show for `CC[C@@H]1CC=C[C@H]2[C@H]1C(=O)N(Cc1ccccc1)[C@H]2c1ccc(C(F)(F)F)cc1`?
uPA surface inh: -23%; TDP1 cell noCPT: inconclusive; TDP1 block: -1%; DT40 TDP1 CPT: 15µM*; miR-21 reporter: 13%

What do the screens show for `CCC1CC=CC2C1C(=O)N(Cc1ccccc1)C2c1ccoc1` (stereo not given)?
TDP1 block: 7%

What do the screens show for `CSCCC(C(=O)Nc1c(C)cccc1C)N1CCC(Cc2ccccc2)CC1` (stereo not given)?
TDP1 cell noCPT: 18µM*; DT40 TDP1 CPT: 16µM*

Results for Cc1cccc(C)c1NC(=O)C(c1ccccc1)N1CCC(c2ccccc2)CC1 (stereo not given) ?
TDP1 cell noCPT: 15µM*; DT40 TDP1 CPT: inconclusive

What do the screens show for `O=C(Nc1ccc(F)cc1)C(CCc1ccccc1)N1CCN(c2ccncc2)CC1` (stereo not given)?
TDP1 cell noCPT: 23µM*; DT40 TDP1 CPT: 16µM*

How did Cc1cccc(C)c1NC(=O)C(CCc1ccccc1)N1CCC(c2ccccc2)CC1 (stereo not given) do in these assays?
TDP1 cell noCPT: 18µM*; DT40 TDP1 CPT: 16µM*

How did CCc1nc(CNC(=O)C2CCC(=O)N(CCc3ccc(OC)cc3)C2)cs1 (stereo not given) do in these assays?
uPA surface inh: 10%; TDP1 cell noCPT: 6%; TDP1 block: 2%; DT40 TDP1 CPT: 5%; miR-21 reporter: -3%

Results for CCOC(=O)C1CN(S(=O)(=O)c2cc(OC)ccc2OC)C1 ?
uPA surface inh: -8%; TDP1 cell noCPT: -12%; DT40 TDP1 CPT: -4%; miR-21 reporter: -1%

Results for COc1ccccc1CNC(=O)CN1C(=O)CCCc2ccccc21 ?
TDP1 cell noCPT: -11%; TDP1 block: 9%; DT40 TDP1 CPT: -16%; miR-21 reporter: -8%

What do the screens show for `CSCCC(C(=O)Nc1c(C)cccc1C)N1CCN(c2ccc(F)cc2)CC1` (stereo not given)?
TDP1 cell noCPT: 21µM*; DT40 TDP1 CPT: inconclusive

How did O=C(Nc1ccc2c(c1)OCCO2)C(CCc1ccccc1)N1CCC(Cc2ccccc2)CC1 (stereo not given) do in these assays?
TDP1 cell noCPT: 16µM*; DT40 TDP1 CPT: inconclusive

What do the screens show for `COc1ccc(-n2c(=S)[nH]c3sc4c(c3c2=O)CCN(C)C4)cc1`?
miR-21 reporter: -9%

How did c1ccc(-c2nnsc2Sc2ccccn2)cc1 do in these assays?
uPA surface inh: 2%; TDP1 cell noCPT: 0%; TDP1 block: -7%; DT40 TDP1 CPT: 13%; miR-21 reporter: -43%

How did Cc1nn(-c2ccccc2)c2c1CC(=O)Nc1ccccc1-2 do in these assays?
uPA surface inh: -8%; TDP1 cell noCPT: 0.82µM*; DT40 TDP1 CPT: 0.65µM*

What do the screens show for `Cc1nn(-c2ccccc2)c(=O)c2ccccc12`?
uPA surface inh: -2%; TDP1 cell noCPT: -1%; TDP1 block: -3%; DT40 TDP1 CPT: -5%; miR-21 reporter: -16%

What do the screens show for `COc1ccc2c(c1OC)C(=O)OC2CC(=O)O` (stereo not given)?
uPA surface inh: -1%; TDP1 cell noCPT: 0%; TDP1 block: 4%; DT40 TDP1 CPT: -3%; miR-21 reporter: -3%

Results for CC(C)C(C)/C=C/C(C)C1CCC2C3=CCC4CC(=O)CC[C@@]4(C)C3CC[C@]21C (stereo not given in full) ?
TDP1 cell noCPT: -17%; TDP1 block: 5%; DT40 TDP1 CPT: 3%

What do the screens show for `Cc1cc(N2O[C@]34C=C[C@]25C[C@@H](O)CC[C@]5(C)C3CC[C@]2(C)[C@@H]([C@H](C)/C=C/[C@H](C)C(C)C)CC[C@H]24)no1` (stereo not given in full)?
uPA surface inh: 4%; TDP1 cell noCPT: 9.2µM*; DT40 TDP1 CPT: 12µM*

Screening data deposited in PubChem by National Center for Advancing Translational Sciences (NCATS).
